In the test the target is α-syn fibrils (Homo sapiens, UniProt P37840). Conditions: from Thio-T competition Ki values.

One compound from PMC4624220 (Journal of medicinal chemistry, 2015) can be followed below.

Take `CN(C)c1ccc(/C=C/C=C2C(=O)N(Cc3ccc([N+](=O)[O-])cc3)c3ccccc32)cc1` [Compound 28, 3-(3-(4-(Dimethylamino)phenyl)allylidene)-1-(4-nitrobenzyl)indolin-2-one]: the “selectivity for α-syn versus Aβ fibrils” value stood at 20 fold and the “selectivity for α-syn versus tau fibrils” value worked out at 20 fold.
